# Apparent affinities of Ab-14 variants for a coronavirus HR2 peptide

The measurements come from Engelhart et al. 2022 (doi:10.1038/s41597-022-01779-4) through the FLAb antibody collection.

All variants were tested on one target, the spike HR2 peptide PDVDLGDISGINAS (SARS-CoV-2).

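Phage display of a naive human antibody library on the peptide gave the parent. In library AAYL50, one, two or three CDR residues were substituted; doubles and triples were drawn at random. The scFvs were displayed on barcoded MATa yeast, the peptide on MATalpha yeast. Pairs that bind mate more often; barcode pairs of the diploids are counted by sequencing. Read counts were normalised to the haploid input and turned into Kd by a linear fit to BCL2-family pairs of known affinity, for each replicate. The assay was run in three technical replicates.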

Ab-14 is the parent antibody, in scFv form: VH, then the linker GGGGSGGGGSGGGGS, then VL. The heavy chain is unchanged in all variants.
VH: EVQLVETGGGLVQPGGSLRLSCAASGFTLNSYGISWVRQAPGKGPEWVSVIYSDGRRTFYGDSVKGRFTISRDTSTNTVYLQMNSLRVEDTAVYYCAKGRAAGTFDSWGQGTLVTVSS
VL: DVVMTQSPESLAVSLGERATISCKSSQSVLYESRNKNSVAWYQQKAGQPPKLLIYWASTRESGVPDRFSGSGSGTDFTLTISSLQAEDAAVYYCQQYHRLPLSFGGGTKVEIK

Changes read parent residue, position, new residue, counted from the first residue of the VL shown. All variants listed here change V29 of the VL, counted from its first residue. Affinities are written as log10 Kd with Kd in nM; a lower number is a better binder. A mean of the replicates is given; it leaves out those without a signal. Where no diploid with the target was found in that replicate, the entry reads "nd": below detection, most likely a poor binder, though not proof of it. For reference, the parent read 0.65 as the reference entry and 1.68 as a member of this library.

The variant V29T+E32G+H98C gave 1.59, 1.43, 1.44 (mean 1.49; controls 5 of 9).
The variant V29C+N37H+S103D gave nd, 3.84, 4.54 (mean 4.19; controls 2 of 9).
The variant V29F+R34M+R99F gave 2.69, 2.87, nd (mean 2.78; controls 1 of 9).
The variant V29I+S33N gave 0.47, 0.89, 0.67 (mean 0.67; controls 1 of 9).
The variant V29D+S58H+Q96W gave 4.67, 2.57, nd (mean 3.62; controls 0 of 9).
The variant S28M+V29K+S103E gave 1.28, 1.65, 1.96 (mean 1.63; controls 1 of 9).
The variant V29A+S38H+A57E gave nd, nd, 2.94 (controls 0 of 9).
The variant V29N+N35P+N37W gave nd, 3.71, nd (controls 2 of 9).
The variant V29P+L30G+L102V gave 3.95, 4.77, 3.80 (mean 4.17; controls 7 of 9).
The variant V29Y+Q96I+S103H gave 0.98, 1.24, 1.13 (mean 1.12; controls 1 of 9).
The variant V29W+W56N+L102S gave -0.48, -0.11, -0.23 (mean -0.27; controls 2 of 9).
The variant V29K+K36R+Q96K gave 3.09, 4.53, 3.12 (mean 3.58; controls 1 of 9).
The variant V29N+S62P gave nd, nd, nd (controls 0 of 9).
The variant V29T+H98N+S103N gave nd, 3.11, nd (controls 1 of 9).
The variant V29S+E32L+Y97R gave 4.27, nd, nd (controls 0 of 9).
The variant V29L+P101L+L102W gave 0.00, 0.52, 0.37 (mean 0.30; controls 0 of 9).
The variant S26Q+V29N+R60K gave 2.53, 2.12, 2.48 (mean 2.37; controls 3 of 9).
The variant V29I+R60I+S103F gave 3.01, 2.89, 3.55 (mean 3.15; controls 2 of 9).
The variant V29I+S33A+E61P gave 1.90, 1.56, 2.22 (mean 1.89; controls 0 of 9).
The variant V29S+V39R+S103R gave nd, nd, nd (controls 0 of 9).
The variant S25P+V29P+S58E gave 2.79, 2.72, 4.12 (mean 3.21; controls 3 of 9).
The variant K24D+V29A+R34Y gave 2.39, 2.14, 2.61 (mean 2.38; controls 7 of 9).
The variant V29E+S38L+L102W gave nd, nd, nd (controls 0 of 9).
The variant S26I+V29F+L102M gave 1.52, 1.84, 2.13 (mean 1.83; controls 1 of 9).
The variant V29L+Y31I+T59D gave 0.75, 0.72, 0.92 (mean 0.80; controls 0 of 9).
The variant V29C+S33E+S38Y gave nd, 3.47, 1.79 (mean 2.63; controls 0 of 9).
The variant S25N+V29H+S103L gave 1.81, 1.71, 2.09 (mean 1.87; controls 2 of 9).
The variant V29K+Q95D gave nd, nd, nd (controls 0 of 9).
The variant S28K+V29Y gave 0.84, 1.07, 1.17 (mean 1.03; controls 3 of 9).
The variant V29Q+K36N+Q96H gave 5.37, 4.47, nd (mean 4.92; controls 4 of 9).
The variant V29R+A40S+Q95N gave nd, nd, nd (controls 3 of 9).
The variant Q27W+V29Y+Y97I gave 1.60, 1.44, 1.58 (mean 1.54; controls 1 of 9).
The variant V29L+Q96N+L100F gave nd, nd, nd (controls 2 of 9).
The variant V29H+S33V+N35C gave 3.33, 3.66, 3.23 (mean 3.41; controls 5 of 9).
The variant Q27P+V29M+K36N gave 0.60, 0.86, 0.78 (mean 0.75; controls 0 of 9).
The variant V29W+Q96L+P101R gave nd, nd, nd (controls 0 of 9).
The variant V29T+N37Q+A40V gave nd, nd, nd (controls 0 of 9).
The variant V29A+A57N+S103W gave nd, nd, nd (controls 1 of 9).
The variant K24P+V29C+V39G gave nd, nd, nd (controls 0 of 9).
The variant Q27A+V29C+A40W gave 4.65, nd, nd (controls 3 of 9).
The variant V29C+L30A+A40K gave nd, 4.04, nd (controls 0 of 9).
The variant V29M+A40F+L102H gave nd, nd, 5.22 (controls 0 of 9).
The variant S26I+V29H gave 1.21, 1.36, 1.35 (mean 1.31; controls 2 of 9).
The variant V29I+A57F+E61S gave nd, nd, nd (controls 0 of 9).
The variant V29K+L30S+E61L gave 1.39, 1.16, 1.04 (mean 1.19; controls 0 of 9).
The variant S25K+V29G+S103Y gave 2.23, 2.06, 2.42 (mean 2.24; controls 2 of 9).
The variant V29L+Y97H+H98C gave 0.63, 0.84, 0.78 (mean 0.75; controls 3 of 9).
The variant S26I+V29N+W56R gave -0.06, 0.23, -0.02 (mean 0.05; controls 4 of 9).
The variant Q27D+V29I+S58T gave 0.89, 1.08, 0.99 (mean 0.99; controls 4 of 9).

Excerpt, the first 4 entries:

changes,log10 Kd (nM) by replicate,mean log10 Kd (nM),control signals
V29T+E32G+H98C,"1.59, 1.43, 1.44",1.49,5/9
V29C+N37H+S103D,"nd, 3.84, 4.54",4.19,2/9
V29F+R34M+R99F,"2.69, 2.87, nd",2.78,1/9
V29I+S33N,"0.47, 0.89, 0.67",0.67,1/9

Nonspecific signal, from three strains lacking the peptide, appeared in 18% of pairings of library AAYL50, centred on 4.19 (5% of these signals below 2.99); values are not corrected for it. For each scFv, signals with the empty controls are counted beside the result.